Values of other authors in patent US8524202B2, “Tooth whitening compositions and methods” (priority 2008, dated 2013).

## chlorous acid
  pKa for the chlorite ion/chlorous acid equilibrium: 1.8
